From patent US20100260668A1 (published 2010)
“And” between values parts separate entries of the source, which are not always exact repeats. Identical values can stand only once.

Protein sequences, listed by entry. Tags and fused reporters are not part of them. Chains listed by the source or under a name are the forms on record and can include a tag or linker.
UniProt P15692, other isoform, or with tags, fused parts or gaps limits assumed: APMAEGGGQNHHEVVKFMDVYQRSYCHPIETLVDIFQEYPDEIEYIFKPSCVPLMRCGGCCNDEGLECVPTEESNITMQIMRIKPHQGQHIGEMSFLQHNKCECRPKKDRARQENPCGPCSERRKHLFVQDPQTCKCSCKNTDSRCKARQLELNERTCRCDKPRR

Experiments:
[1] = target: recombinant human VEGF165 (human, UniProt P15692-4 27-191); assay: cell-based or functional assay
VEGF [2] = target: T1, VEGF (UniProt P15692 27-191, limits assumed); assay: direct bind ELISA, antigen on plate; reference antibody
T1 construct: Bought antigen coated on the ELISA plate; also called vascular endothelial growth factor

VEGF 1-165 aa = target: T2, VEGF 1-165 aa (UniProt P15692 27-191); assay: direct bind ELISA (ref Ab)
T2 construct: Bought antigen coated on the ELISA plate

biotinylated VEGF = biotinylated VEGF (UniProt P15692-4 27-191, limits assumed, biotinylated); assay: VEGF capture ELISA, antibody captured by anti-human Fc, biotinylated VEGF
[3] = target: T3, VEGF (biotinylated VEGF; VEGF165) (UniProt P15692-4 27-191, biotinylated (sites not given)); assay: competition ELISA: antibody pre-incubated with 2 nM biotinylated VEGF, then on coated VEGFR1 ECD-Fc (competitor VEGFR1-Fc)
T3 construct: the method paragraph says only 'biotinylated VEGF'

[4] = target: T4, VEGF (VEGF 1-165 aa, R&D Systems 293-VE-010) (UniProt P15692 27-191); assay: Direct bind ELISA, VEGF coated on plate; reference antibody printed beside DVD489
T4 construct: bought reagent; also called vascular endothelial growth factor

[5] = target: T4, VEGF (VEGF 1-165 aa, R&D Systems …); assay: Direct bind ELISA, VEGF coated on plate; reference antibody printed beside DVD490
[6] = target: T4, VEGF (VEGF 1-165 aa, R&D Systems …); assay: Direct bind ELISA, VEGF coated on plate; reference antibody printed beside DVD495
[7] = target: T4, VEGF (VEGF 1-165 aa, R&D Systems …); assay: Direct bind ELISA, VEGF coated on plate; reference antibody printed beside DVD496
[8] = target: T4, VEGF (VEGF 1-165 aa, R&D Systems …); assay: Direct bind ELISA, VEGF coated on plate; reference antibody printed beside DVD501
[9] = target: T4, VEGF (VEGF 1-165 aa, R&D Systems …); assay: Direct bind ELISA, VEGF coated on plate; reference antibody printed beside DVD502
[10] = target: T4, VEGF (VEGF 1-165 aa, R&D Systems …); assay: Direct bind ELISA, VEGF coated on plate; reference antibody printed beside DVD507
[11] = target: T4, VEGF (VEGF 1-165 aa, R&D Systems …); assay: Direct bind ELISA, VEGF coated on plate; reference antibody printed beside DVD508
[12] = target: T4, VEGF (VEGF 1-165 aa, R&D Systems …); assay: Direct bind ELISA, VEGF coated on plate; reference antibody printed beside DVD513
[13] = target: T4, VEGF (VEGF 1-165 aa, R&D Systems …); assay: Direct bind ELISA, VEGF coated on plate; reference antibody printed beside DVD514
[14] = target: T4, VEGF (VEGF 1-165 aa, R&D Systems …); assay: Direct bind ELISA, VEGF coated on plate; reference antibody printed beside DVD519
[15] = target: T4, VEGF (VEGF 1-165 aa, R&D Systems …); assay: Direct bind ELISA, VEGF coated on plate; reference antibody printed beside DVD520
[16] = target: T4, VEGF (VEGF 1-165 aa, R&D Systems …); assay: Direct bind ELISA, VEGF coated on plate; reference antibody printed beside DVD525
[17] = target: T4, VEGF (VEGF 1-165 aa, R&D Systems …); assay: Direct bind ELISA, VEGF coated on plate; reference antibody printed beside DVD526
[18] = target: T4, VEGF (VEGF 1-165 aa, R&D Systems …); assay: Direct bind ELISA, VEGF coated on plate; reference antibody printed beside DVD531
[19] = target: T4, VEGF (VEGF 1-165 aa, R&D Systems …); assay: Direct bind ELISA, VEGF coated on plate; reference antibody printed beside DVD532
VEGF [20] = target: T5, VEGF (UniProt P15692 27-191, limits assumed); assay: direct bind ELISA, reference antibody
T5 construct: bought antigen coated on the ELISA plate

B1: AB070 (antibody, human IgG1, kappa, V domains shown)
VH: EVQLVESGGGLVQPGGSLRLSCAASGFTISDYWIHWVRQAPGKGLEWVAGITPAGGYTYYADSVKGRFTISADTSKNTAYLQMNSLRAEDTAVYYCARFVFFLPYAMDYWGQGTLVTVSS
VL: DIQMTQSPSSLSASVGDRVTITCRASQDVSTAVAWYQQKPGKAPKLLIYSASFLYSGVPSRFSGSGSGTDFTLTISSLQPEDFATYYCQQSYTTPPTFGQGTKVEIKR
[1]
  inhibition of HUVEC proliferation (IC50): 7 nM

B2: AB070 (antibody, human IgG1, kappa, V domains shown)
VH: B1 VH
VL: B1 VL
notes: also called AB070VH; AB070VL
VEGF [2]
  EC50: 1.9 nM

B3: AB070 (antibody, human IgG1, kappa, V domains shown)
VH: B1 VH
VL: B1 VL
notes: Vectors V1/V2
VEGF 1-165 aa
  EC50: 5.22 nM and 4.64 nM and 5.62 nM

B4: AB070 (antibody, human IgG1, kappa, V domains shown)
VH: B1 VH
VL: B1 VL
Biotinylated VEGF
  EC50: 0.35 nM

B5: AB070 (anti-VEGF parent antibody; VEGF (seq. 2) in Table 2, called VEGF (Seq. 3) in the assay tables) (antibody, human IgG1, kappa, V domains shown)
VH: B1 VH
VL: B1 VL
notes: also called AB070VH/AB070VL
[3]
  IC50: 2.8 nM

B6: AB070 (antibody, human IgG1, kappa, V domains shown)
VH: B1 VH
VL: B1 VL
notes: Parent anti-VEGF antibody
[4]
  EC50: 2.8 nM
[5]
  EC50: 2.8 nM
[6]
  EC50: 2.8 nM
[7]
  EC50: 2.8 nM
[8]
  EC50: 2.44 nM
[9]
  EC50: 2.44 nM
[10]
  EC50: 2.44 nM
[11]
  EC50: 2.44 nM
[12]
  EC50: 0.97 nM
[13]
  EC50: 0.97 nM
[14]
  EC50: 0.97 nM
[15]
  EC50: 0.97 nM
[16]
  EC50: 1.42 nM
[17]
  EC50: 1.42 nM
[18]
  EC50: 1.42 nM
[19]
  EC50: 1.42 nM

B7: AB070 (antibody, human IgG1, kappa, V domains shown)
VH: B1 VH
VL: B1 VL
VEGF [20]
  EC50: 2.35 nM and 1.68 nM
